The text below walks through data of patent US20170216355A1, “Methods and Compositions for Enhancing T Cell Function and Survival” (Augusta University Research Institute, Inc., priority 2016, published 2017).

Amino acid sequences for entries named in this document (tags omitted).
UniProt P42338, whole entry, species assumed: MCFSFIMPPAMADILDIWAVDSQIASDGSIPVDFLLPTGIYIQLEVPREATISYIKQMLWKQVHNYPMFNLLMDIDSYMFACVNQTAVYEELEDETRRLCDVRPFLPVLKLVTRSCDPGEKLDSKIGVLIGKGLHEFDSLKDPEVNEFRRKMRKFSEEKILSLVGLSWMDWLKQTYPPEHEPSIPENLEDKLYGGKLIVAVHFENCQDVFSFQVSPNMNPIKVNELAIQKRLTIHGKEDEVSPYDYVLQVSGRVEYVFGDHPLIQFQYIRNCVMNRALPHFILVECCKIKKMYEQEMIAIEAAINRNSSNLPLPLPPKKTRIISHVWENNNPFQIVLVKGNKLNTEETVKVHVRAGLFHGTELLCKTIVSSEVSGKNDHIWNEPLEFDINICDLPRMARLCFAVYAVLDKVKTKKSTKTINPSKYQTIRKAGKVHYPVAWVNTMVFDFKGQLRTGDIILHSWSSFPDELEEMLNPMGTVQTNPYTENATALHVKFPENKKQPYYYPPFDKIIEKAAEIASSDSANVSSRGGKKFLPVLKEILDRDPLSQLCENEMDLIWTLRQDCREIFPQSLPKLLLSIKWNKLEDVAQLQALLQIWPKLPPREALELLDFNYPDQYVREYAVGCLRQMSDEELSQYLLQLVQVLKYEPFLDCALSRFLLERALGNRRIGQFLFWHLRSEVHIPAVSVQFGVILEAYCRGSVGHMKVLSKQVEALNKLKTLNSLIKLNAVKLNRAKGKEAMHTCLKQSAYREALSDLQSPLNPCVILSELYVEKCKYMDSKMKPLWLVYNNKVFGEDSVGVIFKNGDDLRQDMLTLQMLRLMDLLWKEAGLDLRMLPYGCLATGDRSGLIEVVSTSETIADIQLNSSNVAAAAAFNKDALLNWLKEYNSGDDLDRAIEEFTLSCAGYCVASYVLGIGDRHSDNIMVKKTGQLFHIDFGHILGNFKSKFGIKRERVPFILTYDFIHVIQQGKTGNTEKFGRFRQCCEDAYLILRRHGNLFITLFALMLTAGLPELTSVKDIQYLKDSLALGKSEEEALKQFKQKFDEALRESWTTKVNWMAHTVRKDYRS

Molecules are shown by their SMILES.

Assay [1] concerns CD8 T cells from pMel-1 mice. Briefly: Proliferation assay (VCT dye dilution) and fold expansion of CD8 T cells. The class given is cell-based, mouse. As to conditions: after 3 days of stimulation. On the procedure: CD8 T cells from pMel-1 mice were activated in vitro as previously described^5. […] Cells were cultured in RPMI 1640 (Lonza) supplemented with 10% FBS, penicillin (100 U/mL), streptomycin ([…]), 0.1% β-mercaptoethanol (Life Technologies, Invitrogen) and IL-2 (100 U/ml) (Peprotech) at 37° C. with 5% CO2. pMel-1 cells were cultured with or without the different PI3K inhibitors. The concentration of the inhibitors was maintained throughout the culture by changing the media every 48-72 hours. […] The proliferation of CD8 T cells was assessed via VCT dye dilution (day 3) using an LSRII SORP with HTS Flow Cytometer (BD Biosciences). The data were analyzed using FlowJo 10 (Tree Star). […] Cells were stained with the following surface marker antibodies (BD Biosciences): APC-Cy7 labeled anti-CD8, FITC labeled anti-Vβ13, PE labeled anti-CD62L, APC labeled anti-CD44, PE-CF594 labeled anti-CD127, APC labeled anti-KLRG-1 in addition to the viability stain 7AAD. All the analyses were performed on viable (7AAD−), Vβ13+CD8+ T cells.

Assay [2] addresses p110β (Homo sapiens, UniProt P42338). As to conditions: cited from earlier work.

As to `CS(=O)(=O)N1CCN(Cc2cc3nc(-c4cccc5[nH]ncc45)nc(N4CCOCC4)c3s2)CC1` [GDC-0941], the “proliferation of CD8 T cells (VCT dilution)” value in assay [1] was “inhibited in a dose-dependent manner”; in assay [1] (listed as GDC) it was “slightly inhibited”.
As usually defined, the IC50 is the concentration that gives 50% inhibition. For the molecule `Cc1cc(C(C)Nc2ccccc2)c2nc(N3CCOCC3)cc(=O)n2c1` (stereo not drawn) [TGX-221], the IC50 in assay [2] is 5 nM.
